Assay results reported in patent US20110144018A1, “AGENT FOR PROPHYLAXIS OF REFLEX SYMPATHETIC DYSTROPHY AFTER CEREBRAL APOPLEXY” (priority 2006, published 2011).

Assays:
[1] = test system: mice; test: Lethal toxicity in mice; format: in vivo; conditions: 13500 or 7400 units/kg (body weight) to mice or rats; intravenous, intramuscular, hypodermic and oral routes
Excerpt: (§1) These calcitonins or calcitonin derivatives are exceedingly low toxic.

[2] = test system: rats; test: Lethal toxicity in rats; format: in vivo; conditions: 13500 or 7400 units/kg (body weight) to mice or rats; intravenous, intramuscular, hypodermic and oral routes
Excerpt: as §1

1-butyric acid-7-(L-2-aminobutyric acid)-26-L-aspartic acid-27-L-valine-29-L-alanine-calcitonin [EL]
Lethal toxicity [1]: no lethal toxicity | Lethal toxicity [2]: no lethal toxicity
